Source: paper PMC1626583

By UniProt entry, the sequences of proteins in these tests, tags left out.
UniProt P05556, whole entry, looked up: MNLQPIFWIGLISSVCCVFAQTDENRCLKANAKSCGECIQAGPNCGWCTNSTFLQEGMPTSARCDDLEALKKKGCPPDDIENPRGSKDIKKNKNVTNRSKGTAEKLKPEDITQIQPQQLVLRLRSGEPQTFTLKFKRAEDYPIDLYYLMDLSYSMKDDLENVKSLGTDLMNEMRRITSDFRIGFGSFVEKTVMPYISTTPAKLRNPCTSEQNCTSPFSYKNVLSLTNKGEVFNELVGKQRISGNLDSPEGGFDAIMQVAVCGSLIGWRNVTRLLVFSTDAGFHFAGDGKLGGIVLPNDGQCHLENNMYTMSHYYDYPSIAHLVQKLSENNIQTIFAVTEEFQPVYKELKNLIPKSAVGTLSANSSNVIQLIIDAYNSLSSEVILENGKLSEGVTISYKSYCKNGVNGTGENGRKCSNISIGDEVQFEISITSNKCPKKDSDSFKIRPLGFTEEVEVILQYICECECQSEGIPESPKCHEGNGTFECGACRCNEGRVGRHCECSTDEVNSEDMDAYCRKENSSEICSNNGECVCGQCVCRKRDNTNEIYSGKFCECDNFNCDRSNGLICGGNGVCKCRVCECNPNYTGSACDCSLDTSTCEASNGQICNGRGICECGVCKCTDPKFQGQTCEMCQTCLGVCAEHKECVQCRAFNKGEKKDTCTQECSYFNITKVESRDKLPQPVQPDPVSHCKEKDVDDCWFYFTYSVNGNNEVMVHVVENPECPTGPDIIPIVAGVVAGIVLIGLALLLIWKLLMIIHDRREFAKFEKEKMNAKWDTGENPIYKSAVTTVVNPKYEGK

Biological target: integrin α5β1 (human (endogenous in placenta)) (UniProt P05556)
Assay: ELISA

| Kd | fold enhancement over Ala5 | Substance |
| --- | --- | --- |
| 5 nM |  | FIII9–10 mutant Ala1, GST fusion protein (domain or fragment) |
| 5 nM |  | FIII9–10 mutant Ala3, GST fusion protein (domain or fragment) |
|  | 3 fold | FIII9–10 mutant Ala5-L1408P, GST fusion protein (domain or fragment) |
| 0.7 nM |  | FIII9–10 mutant L1408P, GST fusion protein (domain or fragment) |
